T1: Human PTH (1-34) (human, not fully specified)
T1 construct: Synthetic peptide bought from Bachem; also called hPTH (1-34); human 34mer
T1 peptide: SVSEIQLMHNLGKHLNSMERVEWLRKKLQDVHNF

T2: Human PTH (1-84) (human)
T2 construct: Synthetic peptide bought from Bachem; also called hPTH1-84; Hu 84mer
T2 peptide: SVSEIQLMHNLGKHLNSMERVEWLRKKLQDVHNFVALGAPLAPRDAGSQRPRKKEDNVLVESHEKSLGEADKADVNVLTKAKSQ


Key:
[1] = target: T1, Human PTH (1-34); experiment: BiaCore, 25° C., 34mer
[2] = target: PTH (antigen of the kinetic study of mAb sc275); experiment: biosensor kinetics, pH 7.4, 37 degree C., antibody held by Fc-specific capture, PTH injected, 1:1 model
Procedure: (§1) Each antigen concentration was injected in duplicate. Associations were monitored for one minute and dissociations were monitored for five minutes and ten minutes for the pH 7.4 and 6.0 assay, respectively. The surfaces were regenerated with a 12-second pulse of 50 mM H₃PO₄.
(§2) Finally, kinetic rate constants were determined by double referencing each data set to fit globally to a 1:1 interaction model.

[3] = target: PTH (antigen of the kinetic study of mAb sc275); experiment: biosensor kinetics, pH 7.4, 37 degree C., antibody immobilised by aldehyde coupling, PTH injected, 1:1 model
Procedure: as §1, §2

[4] = target: T2, Human PTH (1-84); experiment: binning of recombinant antibodies (Table 10)
[5] = target: PTH (antigen of the kinetic study of mAb sc275); experiment: biosensor kinetics, pH 7.4, 37 degree C., antibody immobilised by amine coupling, PTH injected, 1:1 model
Procedure: as §1, §2

[6] = target: T2, Human PTH (1-84); experiment: BiaCore, 37° C., 84mer
[7] = target: T1, Human PTH (1-34); experiment: BiaCore, 37° C., 34mer

Kd [1]	Kd [2]	koff [2]	kon [2]	Kd [3]	koff [3]	kon [3]	binding result [4]	Kd [5]	koff [5]	kon [5]	Kd [6]	Kd [7]	Binder
0.2 nM	1.9 nM	0.00093 s⁻¹	480000 M⁻¹ s⁻¹	2 nM	0.0012 s⁻¹	610000 M⁻¹ s⁻¹	binds	2.5 nM	0.00086 s⁻¹	350000 M⁻¹ s⁻¹	–	–	mAb sc275 (antibody, IgG2, V domains shown) VH: EVQLVESGGGLVKPGGSLRLSCAASGLTFSNAWMSWVRQAPGKGLEWVGRIKSKTDGGTTDYAAPVKGRFTISRDDSKNTLYLQMNSLKTEDTAVYYCTTYYFDSSGFPFDYWSQGTLVTVSS VL: DIVMTQSPLSLPVTPGEPASISCRSSQSLLHSNGYKYLEWYLQKPGQSPQLLIYLGSNRASGVPDRFSGSGSGTDFTLKISRVEAEDVGVYYCMQTLQIPLTFGGGTKVEIK
0.6 nM	–	–	–	–	–	–	–	–	–	–	3.9 nM	0.2 nM	anti-PTH mAb 238 (antibody, IgG2, V domains shown, also called AB-PTH-XG2-238; well 264E5) VH: EVQLVESGGGLVKPGGSLRLSCAASGLTFSNAWMSWVRQAPGKGLEWVGRIKSKSDGGTTDYAAPVKGRFTISRDDSKNTLYLQMNSLKTEDTAVYYCTTYYFDSSGFPFDYWSQGTLVTVSS VL: DIVMTQSPLSLPVTPGEPASISCRSSQSLLHSNGYKYLEWYLQKPGQSPQLLIYLGSNRASGVPDRFSGSGSGTDFTLKISRVEAEDVGVYYCMQTLQIPLTFGGGTKVEIK
4.7 nM	–	–	–	–	–	–	–	–	–	–	–	16.7 nM	anti-PTH mAb 086 (antibody, IgG2, V domains shown, also called AB-PTH-XG2-086; well 133D2) VH: EVQLVESGGGLVKPGGSLRLSCAASGFTFSNAWMSWVRQAPGKGLEWVGRIKSKTDGGTTDYAAPVKGRFTISRDDSKKTLYLQMNSLKTEDTAVYYCTTGATFDSWGQGTLVTVSS VL: [about 120 residues not written out]
